Measured affinities in a library of Ab-14 light chain variants

Antigen: PDVDLGDISGINAS, a 14-residue peptide of the SARS-CoV-2 spike HR2 region.

Parent scFv Ab-14: VH joined to VL by three GGGGS repeats. Changes lie in the light chain CDRs alone.
VH: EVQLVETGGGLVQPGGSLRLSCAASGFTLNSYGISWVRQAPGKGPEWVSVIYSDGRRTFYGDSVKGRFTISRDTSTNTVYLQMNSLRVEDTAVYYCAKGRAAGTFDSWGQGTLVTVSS
VL: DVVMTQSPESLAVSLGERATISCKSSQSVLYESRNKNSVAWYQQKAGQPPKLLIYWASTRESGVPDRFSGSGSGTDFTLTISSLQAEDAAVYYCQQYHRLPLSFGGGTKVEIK

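The starting antibody came from a phage panning campaign against this peptide. Variants in AAYL50 differ from the parent at up to three CDR positions; double and triple changes were sampled at random. AlphaSeq pools MATa yeast showing the antibodies with MATalpha yeast showing the peptide. Binding brings cells together so that they mate, and sequencing counts the barcode pairs among the diploids. Read counts were normalised to the haploid input and turned into Kd by a linear fit to BCL2-family pairs of known affinity, for each replicate. Each pool was mated in three replicate cultures.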

Positions count from residue 1 of the parent VL; S28C puts C in place of S.
The read-out is the apparent dissociation constant on a log10 scale (nM): the lower, the stronger.
Averages over replicates are reported, and they cover detected replicates only.
A pair that was not seen in that replicate is written "ND"; this usually means weak binding, but a binder can also be missed.
Three control strains display no target. For library AAYL50, 18% of the pairings with them gave a signal, with a median of 4.19 and one signal in twenty below 2.99, so weak values seen in few replicates may be background. For each scFv, signals with the empty controls are counted beside the result, with their mean in brackets.

| changes | log10 Kd (nM) by replicate | log10 Kd (nM), mean | control signals |
|---|---|---|---|
| S28C+A57E+R99E | 2.97 / 3.07 / 2.94 | 2.99 | 1/9 (3.90) |
| Y31K+E61W+H98E | 2.47 / 2.29 / 2.56 | 2.44 | 8/9 (4.30) |
| S38I+W56G+A57Y | ND / 2.87 / 3.18 | 3.03 | 1/9 (3.33) |
| S33Y+A57T+T59D | 2.34 / 1.96 / 1.98 | 2.09 | 1/9 (3.16) |
| E61H+Q95Y+L102Y | ND / ND / ND | ND | 4/9 (3.39) |
| Y31C+N35Q+E61H | 2.22 / 3.90 / 3.35 | 3.16 | 4/9 (4.24) |
| K24M+Y31G+S38G | 1.90 / 2.46 / 2.11 | 2.16 | 1/9 (2.90) |
| S28H+E32V+A40L | ND / ND / ND | ND | 0/9 |
| Q27N+R60C | 4.40 / 2.90 / 3.41 | 3.57 | 0/9 |
| R34P+N37S | ND / ND / ND | ND | 1/9 (2.64) |
| K36L+S62E+L102D | 4.52 / ND / ND | 4.52 | 3/9 (3.68) |
| Q27E+L30N+E61W | 1.18 / 1.24 / 1.36 | 1.26 | 0/9 |
| S28Y+E32A+R99G | 1.97 / 2.34 / 2.08 | 2.13 | 1/9 (3.88) |
| K36P+A40L+L102P | ND / ND / ND | ND | 1/9 (3.26) |
| Y31Q+Y97N+H98L | ND / 2.63 / 3.49 | 3.06 | 2/9 (3.44) |
| N37H+L102V | 2.49 / 2.45 / 2.90 | 2.61 | 1/9 (3.64) |
| A40D+E61K+L100P | ND / ND / ND | ND | 1/9 (2.83) |
| K24G+W56P+Q95S | ND / ND / 4.21 | 4.21 | 0/9 |
| S28K+S33L+Q95L | 2.71 / 2.60 / 3.96 | 3.09 | 3/9 (4.09) |
| E32T+S33C+T59P | 6.30 / ND / ND | 6.30 | 4/9 (4.14) |
| N35A+N37A+S62H | 1.72 / 1.43 / 1.85 | 1.67 | 0/9 |
| N37K+S38Q+Q96R | ND / 4.02 / ND | 4.02 | 4/9 (4.30) |
| S28I+T59Y+Q96T | 4.34 / 3.06 / 3.59 | 3.66 | 1/9 (4.50) |
| R34C+N37Q+Y97C | 1.22 / 1.15 / 1.31 | 1.23 | 2/9 (3.98) |
| K36Y+S38D+S103I | 3.30 / 2.16 / 2.75 | 2.74 | 3/9 (3.81) |
| A57C+H98Y+S103W | ND / 2.86 / 4.31 | 3.59 | 0/9 |
| S25M+S28H+S62R | 0.22 / 0.45 / 0.29 | 0.32 | 3/9 (4.96) |
| R34H+K36Y+S38R | 1.82 / 1.85 / 2.01 | 1.89 | 1/9 (4.74) |
| E32P+Q95R+L102G | ND / ND / 5.14 | 5.14 | 4/9 (4.15) |
| N37T+V39M | 3.06 / 3.30 / 3.33 | 3.23 | 4/9 (4.47) |
| E61A+S62P+R99P | 3.68 / 2.91 / 3.44 | 3.34 | 1/9 (4.34) |
| S33V+T59D+S103N | 3.87 / 4.03 / ND | 3.95 | 2/9 (4.76) |
| S33L+S58C+P101V | ND / ND / ND | ND | 0/9 |
| S62R+S103C | 1.23 / 1.36 / 1.54 | 1.37 | 0/9 |
| Q27I+K36P+W56G | -0.23 / 0.13 / -0.12 | -0.07 | 4/9 (4.73) |
| R34I+N37P+A57I | ND / ND / ND | ND | 0/9 |
| Q27E+S58P+R99C | ND / ND / 4.76 | 4.76 | 2/9 (4.20) |
| Q95Y+Y97R+P101F | 1.40 / 1.47 / 1.25 | 1.37 | 3/9 (4.50) |
| Y31T+K36E+A57E | 1.70 / 1.35 / 1.27 | 1.44 | 0/9 |
| T59N+Q95V+R99P | ND / ND / ND | ND | 0/9 |
| S25M+R34H+R60Q | 1.04 / 1.11 / 1.21 | 1.12 | 2/9 (4.46) |
| K24E+R60C | ND / ND / ND | ND | 1/9 (3.99) |
| E32T+H98P | ND / ND / ND | ND | 0/9 |
| Y97A | 3.88 / 2.57 / 3.03 | 3.16 | 1/9 (4.46) |
| A57R+S58M+L100V | ND / ND / ND | ND | 2/9 (4.01) |
| S38D+S58W+T59Y | 1.96 / 2.62 / 2.86 | 2.48 | 1/9 (3.91) |

Data: MIT Lincoln Laboratory AlphaSeq set, Engelhart et al. 2022, doi:10.1038/s41597-022-01779-4, as distributed in FLAb.